The values that follow come from PMC5385343, “Crystal Structure of Glyceraldehyde-3-Phosphate Dehydrogenase from the Gram-Positive Bacterial Pathogen A. vaginae, an Immunoevasive Factor that Interacts with the Human C5a Anaphylatoxin” (Frontiers in Microbiology, 2017).

This data set has as its system O=P(O)(O)O. The data set is described as follows: purified protein. As to conditions: 40 mM Tris-HCl pH 8.5, 2 mM EDTA, 25 °C, 0.1 μM enzyme, Pi varied 0.65-24 mM, co-substrates NAD+ and G3P, fixed concentrations not given.

Regarding AvGAPDH (Fannyhessea vaginae DSM 15829), the Km is reported as 3.4 ± 0.6 mM, the maximal velocity (Vmax) turned out to be 174000 µM/min/mg, the kcat came out at 29 s⁻¹ and the kcat/Km amounted to 8000 M⁻¹ s⁻¹.
